Data on one molecule can be found in publication PMC12251305 (Molecules, 2025).

Protein sequences, listed by entry. Tags and fused reporters are not part of them.
UniProt P41143, whole entry: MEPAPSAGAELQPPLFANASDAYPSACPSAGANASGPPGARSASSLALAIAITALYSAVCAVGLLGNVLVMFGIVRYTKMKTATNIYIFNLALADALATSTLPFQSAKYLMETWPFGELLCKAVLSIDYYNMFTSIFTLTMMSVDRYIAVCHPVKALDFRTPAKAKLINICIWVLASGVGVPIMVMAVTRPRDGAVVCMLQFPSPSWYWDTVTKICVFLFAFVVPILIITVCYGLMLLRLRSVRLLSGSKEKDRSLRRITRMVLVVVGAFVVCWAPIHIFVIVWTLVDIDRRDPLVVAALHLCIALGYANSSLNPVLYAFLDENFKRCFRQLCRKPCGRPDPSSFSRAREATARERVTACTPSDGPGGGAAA

In general, Ki refers to the dissociation constant of the complex between target and ligand, obtained from inhibition or displacement.

For this assay, the target named is DOR (Homo sapiens, UniProt P41143). As to the kind of experiment: Radioligand competition binding at DOR. Conditions: read-out: Receptor Binding, Ki ± SEM DOR.

Turning to `C[C@@H](NC(=O)[C@@H](N)Cc1ccc(O)cc1)C(=O)NCC(=O)N(C)[C@@H](Cc1ccccc1)C(=O)NCCO` [DAMGO, [D-Ala2,N-MePhe4,glyol]enkephalin, reference compound], the Ki stood at 857 ± 61 nM.
